This is an account of results in PubChem BioAssay AID1259400 (National Center for Advancing Translational Sciences (NCATS), 2018).

Sequences of proteins named here, by UniProt entry; tags and fusion partners are left off. A change or cut given only in a name is not applied to a line headed by its entry.
UniProt Q9HBX9: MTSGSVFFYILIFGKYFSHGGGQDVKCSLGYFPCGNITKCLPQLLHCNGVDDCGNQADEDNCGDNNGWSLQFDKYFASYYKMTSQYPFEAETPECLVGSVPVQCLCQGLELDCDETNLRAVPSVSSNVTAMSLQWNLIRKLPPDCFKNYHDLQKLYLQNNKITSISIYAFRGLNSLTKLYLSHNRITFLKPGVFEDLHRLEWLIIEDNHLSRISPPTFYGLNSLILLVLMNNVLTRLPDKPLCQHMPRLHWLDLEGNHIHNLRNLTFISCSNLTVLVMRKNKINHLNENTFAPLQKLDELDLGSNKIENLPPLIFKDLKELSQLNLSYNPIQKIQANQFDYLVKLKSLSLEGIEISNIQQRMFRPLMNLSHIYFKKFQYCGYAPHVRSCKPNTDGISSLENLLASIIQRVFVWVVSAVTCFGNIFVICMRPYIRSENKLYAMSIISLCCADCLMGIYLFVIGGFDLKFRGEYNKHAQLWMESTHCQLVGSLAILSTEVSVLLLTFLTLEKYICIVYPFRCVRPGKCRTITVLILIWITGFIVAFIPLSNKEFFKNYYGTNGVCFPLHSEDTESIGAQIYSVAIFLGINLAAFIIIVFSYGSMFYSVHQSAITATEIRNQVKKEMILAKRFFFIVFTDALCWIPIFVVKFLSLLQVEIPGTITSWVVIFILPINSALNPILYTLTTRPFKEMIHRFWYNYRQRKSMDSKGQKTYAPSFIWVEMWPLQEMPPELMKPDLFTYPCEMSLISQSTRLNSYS

SMILES strings stand for the structures. The entries are a selection whose mix differs from that of the whole data set. The source made the active and inactive calls.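 Rule for the calls: active = activity change of -60% or lower, but not beyond a set lower limit; inconclusive = change between -60% and -40%, or beyond the set limit; inactive = change above -40%.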
% is set by controls: 0 for no effect and ±100 for the full control effect.

The target in the experiment is Relaxin receptor 1 (Homo sapiens) (UniProt Q9HBX9). The experiment can be described thus: qHTS Assay for Antagonists of the Relaxin Receptor RXFP1. The conditions noted are these: HEK293-RXFP1, relaxin-stimulated cAMP HTRF, 30 min; at 57.5 µM; active compounds read low. The source says: The relaxin hormone is involved in the variety of biological functions in normal tissues and diseases. The role of relaxin is well-established in female reproduction and parturition, mammary gland and endometrial development, maintenance of myometrial quiescence during pregnancy. Relaxin signaling through its G protein-coupled receptor (GPCR) RXFP1 results in ECM remodeling through regulation of collagen deposition, cell invasiveness, proliferation and overall tissue homeostasis. […] Recombinant human relaxin (rhRlx) is currently being tested in clinical trials as a protective agent in congestive heart failure, in treating severe preeclampsia, and as an anti-fibrotic agent in various organs. […] Upon relaxin binding RXFP1 activation leads to the activation of adenylate cyclase (AC) via G?s. cAMP will activate PKA, which phosphorylates many signaling proteins. Thus, detection of cAMP increase is an easy and reliable indication of relaxin receptor activation. To screen for antagonists of the relaxin receptor, a HEK293T cell line stably transfected with RXFP1 was used. RXFP1 activation by relaxin in presence of various concentrations of tested compounds was assayed by changes in cAMP levels as detected with a time-resolved fluorescence energy transfer (TR-FRET) cAMP detection kit.
For the primary screening, we used HTRF(R) (Homogenous Time-Resolved Fluorescence) cAMP HiRange assay (Cisbio Bioassays, 62AM6PEJ). Presence of cAMP in the cell lysate disrupts binding between the Cryptate-labeled anti-cAMP and d2-labeled cAMP pair, leading to a decrease in TR-FRET signal. The libraries were screened at two doses (57microM and 11microM), followed by a confirmation of the hits at 7-point serial dilution in the range of final concentrations [57microM - 78nM]. Data were normalized to the controls for basal activity (buffer only) and 100% activity (5 nM porcine relaxin). The EC50 values were determined from concentration-response data modeled with the standard Hill equation. NCGC Assay Protocol Summary: HiHEK (Hawaiian HEK293 LGR7 stably transfected with human RXFP1) were grown in the following media: DMEM+10%FBS+Pen/Strep + Geneticin (1mg/ml). For the assay, the cells were seeded in DMEM+Pen/Strep (with no serum & selective antibiotics) at 2,100 cells/ 3microl/well with MultiDrop Combi dispenser (Thermo Scientific, Logan, UT) onto white tissue culture treated solid bottom1536-well plates (Greiner #789173-F) and allowed to attach/recover overnight at 37 degrees C, 5% CO2. Next, 23nl/well of compound solutions in DMSO were transferred into wells with a pintool (Kalypsis, San Diego, CA). […] EC80 (relaxin at 50pM final concentration) was dispensed to the rest of the plate except columns 1&2 which were used as a negative control (EC0, buffer only), 1microl/well also. The cells were stimulated by relaxin in the presence of compounds for 30 minutes at 37 degrees C, 5% CO2. The detection reagents were prepared individually by dilution in Lysis buffer (supplied with the assay kit) just prior to dispensing. 1microl/well of cAMP-d2 and 1microl/well anti-cAMP-Eu3+-Cryptate antibodies were added simultaneously with BioRAPTR FRDtrade mark Workstation (Beckman Coulter). The plates were incubated at ambient temperature for 30 minutes and, then, FRET signal was read on Envision plate reader (PerkinElmer, Waltham, MA), at wavelengths 340nm (excitation), 615nm & 665nm (emission of donor and acceptor channels respectively).
A general note: Quantitative high-throughput screening tests each substance at several concentrations.
With `CCCOP(=S)(Nc1nc(N)cc(=O)[nH]1)OCCC`, the activity change, negative = inhibition is inactive: -7.01%. Under `Nc1cccc2c([As](=O)(O)O)cccc12` stands inactive: 7.23%; under `Cc1ccc(NCCc2c([N+](=O)[O-])cc([N+](=O)[O-])cc2[N+](=O)[O-])cc1`, inactive: -18.1%; under `CCOP(=O)(Nc1cccc2ccccc12)OCC`, inactive: 9.57%. As for `COc1cc(C2NCCC3(OCCO3)C2(C)C)cc(OC)c1OC` (stereo not given), the figure is inactive: -1.89%; as for `CS(=O)(=O)c1ccc(Cl)c(NC(=O)COC(=O)C(O)(c2ccccc2)c2ccccc2)c1`, inactive: -8.44%; as for `COc1cc(C(=O)NCC2(N3CCOCC3)CCCCC2)cc(Cl)c1OC(C)C`, inactive: -3.36%. For the molecule `O=[As](O)(O)c1cccnc1`, the activity change, negative = inhibition is inactive: 19.1%.

For the molecule `O=C(OC1CN2CCC1CC2)c1ccc(Cl)cc1` (stereo not given), the activity change, negative = inhibition was inactive: 13.2%. Under `O=[As](O)(c1cccc(O)c1)c1cccc(O)c1` stands inactive: -4.25%; under `Cc1cccc(OCC(=O)OC2CN3CCC2CC3)c1` (stereo not given), inactive: -1.86%.

Turning to `NC(=O)Nc1ccc([As](=O)(O)O)cc1`, the activity change, negative = inhibition is inactive: 2.34%. Turning to `CN(C(=O)Cc1ccc(Cl)c(Cl)c1)[C@H]1CC[C@@]2(CCCO2)C[C@@H]1N1CCCC1`, the activity change, negative = inhibition is inactive: -4.96%. Under `CN(C)C(=O)c1cc([N+](=O)[O-])cc2c1-c1c(cc([N+](=O)[O-])cc1[N+](=O)[O-])C2=O` stands active: -84%. As for `O=[N+]([O-])c1ccc2c(c1)nnn2O`, the figure is inactive: 2.38%; as for `CCOP1(=S)c2c(C)nn(CCC#N)c2N=C(c2ccc(F)cc2)N1C` (stereo not given), inactive: 23.1%. As for `N#CCCN(C(=O)COC(=O)C(O)(c1ccccc1)c1ccccc1)c1ccc(F)cc1`, the figure is inactive: -8.24%; as for `CS(=O)(=O)c1cc([N+](=O)[O-])c2no[n+]([O-])c2c1`, inactive: -14.4%; as for `O=P(Nc1nccs1)(c1ccccc1)c1nc2ccccc2s1` (stereo not given), inactive: 4.7%.

For `O=P(Nc1nccs1)(Oc1ccccc1)Oc1ccccc1`, the activity change, negative = inhibition is inactive: 0.209%.

For the molecule `CCOP1(=S)c2c(C)nn(CCC#N)c2N=C(c2ccccc2F)N1C` (stereo not given), the activity change, negative = inhibition is inactive: -3.81%. As for `Nc1ccccc1[As](=O)(O)c1ccccc1`, the figure is inactive: -17.1%; as for `O=C(O)COc1ccc([As](=O)(O)O)cc1[N+](=O)[O-]`, inactive: 9.49%; as for `O=P1(Nc2ncccn2)COc2ccccc2OC1`, inactive: -1.76%. As to `O=P1(Nc2ccc(Br)cn2)COc2ccccc2OC1`, the activity change, negative = inhibition was inactive: 1.67%.

Regarding `NS(=O)(=O)c1cccc(NC(=O)COC(=O)C(O)(c2ccccc2)c2ccccc2)c1`, the activity change, negative = inhibition was inactive: -5.22%.

Take `O=[As](O)(c1cccs1)c1cccs1`: the activity change, negative = inhibition was inactive: -6.37%.

In the case of `Cc1ccc(OCC(=O)OC2CN3CCC2CC3)cc1` (stereo not given), the activity change, negative = inhibition was inactive: -3.88%. As for `Nc1cccc([As](=O)(O)c2ccccc2)c1`, the figure is inactive: -6.25%; as for `Cc1ccc(C(=O)OC2CN3CCC2CC3)cc1` (stereo not given), inactive: -5.89%.

`Cc1nn(-c2ccccc2)c2c1P(=O)(N1CCOCC1)N(C)C(c1ccccc1)=N2` (stereo not given): the activity change, negative = inhibition is inactive: 24.3%. Under `CCCC1OP(=O)(Nc2ccccc2)OCC1CC` (stereo not given) stands inactive: 3.6%; under `O=C(/C=C/c1ccccc1)OC1CN2CCC1CC2` (stereo not given), inactive: 5.72%; under `CN(C)C1(CNC(=O)c2ccc(S(C)(=O)=O)cc2)CCCCC1`, inactive: -5.14%.

As to `COc1ccccc1CNC(=O)COC(=O)C(O)(c1ccccc1)c1ccccc1`, the activity change, negative = inhibition was inactive: -5.27%. Under `CC1(CBr)Cn2c(nc3ccccc3c2=O)S1` (stereo not given) stands inactive: -9.19%; under `CC(C)/C=N\N=C(\N)N[N+](=O)[O-]`, inactive: -8.63%; under `CCOP(=O)(Nc1ccc(C)cn1)OCC`, inactive: 5.69%.

With `CCOP(=O)(NC(=NC(C)c1ccccc1)NC(C)c1ccccc1)OCC` (stereo not given), the activity change, negative = inhibition was inactive: 5%.

In the case of `O=P1(Nc2ccccn2)COc2ccccc2OC1`, the activity change, negative = inhibition was inactive: 1.75%. With `CC(C)(C)C(=O)NC(Sc1ncccn1)C(Cl)(Cl)Cl` (stereo not given), the activity change, negative = inhibition is inactive: 1.96%. Under `O=P1(N(CCCl)CCCl)NCCC(C(F)(F)F)O1` (stereo not given) stands inactive: 12.7%; under `Clc1n[nH]nc1-c1nn[nH][15n]1`, inactive: -8.8%. Under `CCOC(=O)c1ccc(NC(=O)C(C)(CCl)SC)cc1` (stereo not given) stands inactive: -7.62%. As for `CSc1ccc(Nc2c([N+](=O)[O-])cc([N+](=O)[O-])cc2[N+](=O)[O-])cc1`, the figure is inactive: 2.52%.

As to `O=C(OC1CN2CCC1CC2)c1cccc([N+](=O)[O-])c1` (stereo not given), the activity change, negative = inhibition was inactive: 1.53%. As for `CCC(C)N(CC(C)C)C(=S)SC(NC(C)=O)C(Cl)(Cl)Cl` (stereo not given), the figure is inactive: 8.17%; as for `COP1(=S)c2c(C)nn(CCC#N)c2N=C(c2ccc(F)cc2)N1C` (stereo not given), inactive: 3.12%.

On to `O=C(Nc1ccncc1[N+](=O)[O-])c1ccc([N+](=O)[O-])cc1[N+](=O)[O-]`, for which the activity change, negative = inhibition was inactive: 11%. Under `O=C(COc1ccccc1)OC1CN2CCC1CC2` (stereo not given) stands inactive: -12.3%. Under `O=C(O)C(=O)c1ccc(N(CCCl)CCCl)cc1` stands inactive: -9.07%. Under `CCOC(=O)Nc1cccc([As](=O)(O)O)c1` stands inactive: 4.78%.

As for `O=[N+]([O-])c1ccc(Nc2ccc(Oc3ccc([N+](=O)[O-])cc3[N+](=O)[O-])cc2)c([N+](=O)[O-])c1`, the activity change, negative = inhibition was inactive: 8.64%. Under `O=P(Nc1ccccn1)(c1cccc2ccccc12)c1cccc2ccccc12` stands inactive: -0.335%. As for `Cc1cc(SC(NC=O)C(Cl)(Cl)Cl)ncn1` (stereo not given), the figure is inactive: -4.05%; as for `CC1CCNP(=O)(N(CCCl)CCCl)O1` (stereo not given), inactive: 1.24%. `CCOC(=O)Nc1ccc([As](=O)(O)O)c(O)c1`: the activity change, negative = inhibition was inactive: -8.23%. As for `O=C(O)C(O)c1ccc(N(CCCl)CCCl)cc1` (stereo not given), the figure is inactive: 14.8%; as for `Cc1cc(SC(NC(=O)c2ccccc2)C(Cl)(Cl)Cl)nc(C(C)C)n1` (stereo not given), active: -109%; as for `CCCCOc1ccc(C(=O)NCC2(N3CCCCC3)CCCCC2)cc1OC`, inactive: -8%. As for `COP(=O)(OC)N1CC1c1ccccc1` (stereo not given), the figure is inactive: 4.46%; as for `CC(C)c1ccc(OP(=O)(Nc2ccccn2)Oc2ccccc2F)cc1` (stereo not given), inactive: 5.58%; as for `COC(=O)C1(C)COP(=O)(N2CCCCCC2)OC1` (stereo not given), inactive: -9.99%. Under `ClCCSc1nnc(-c2cccnc2)o1` stands inactive: 0.105%. `O=[N+]([O-])c1cc([N+](=O)[O-])c(-c2ccn[nH]2)s1`: the activity change, negative = inhibition was inactive: 3.39%.
